Earlier results in US20110230399A1, “Methods for Treating Obesity Related Disease” (priority 2008, published 2011).

Sequences of proteins named here, by UniProt entry; tags and fusion partners are left off.
UniProt P25929, whole entry: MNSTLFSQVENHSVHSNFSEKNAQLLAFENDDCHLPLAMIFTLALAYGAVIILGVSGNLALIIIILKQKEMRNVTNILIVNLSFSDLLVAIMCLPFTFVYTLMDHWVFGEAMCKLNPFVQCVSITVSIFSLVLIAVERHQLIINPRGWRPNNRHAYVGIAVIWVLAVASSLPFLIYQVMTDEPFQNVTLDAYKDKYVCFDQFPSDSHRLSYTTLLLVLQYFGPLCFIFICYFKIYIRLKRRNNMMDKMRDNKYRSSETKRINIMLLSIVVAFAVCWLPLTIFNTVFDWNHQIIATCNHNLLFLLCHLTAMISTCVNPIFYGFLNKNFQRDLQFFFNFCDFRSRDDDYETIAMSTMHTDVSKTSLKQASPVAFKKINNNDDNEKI
UniProt P49146, whole entry, species assumed: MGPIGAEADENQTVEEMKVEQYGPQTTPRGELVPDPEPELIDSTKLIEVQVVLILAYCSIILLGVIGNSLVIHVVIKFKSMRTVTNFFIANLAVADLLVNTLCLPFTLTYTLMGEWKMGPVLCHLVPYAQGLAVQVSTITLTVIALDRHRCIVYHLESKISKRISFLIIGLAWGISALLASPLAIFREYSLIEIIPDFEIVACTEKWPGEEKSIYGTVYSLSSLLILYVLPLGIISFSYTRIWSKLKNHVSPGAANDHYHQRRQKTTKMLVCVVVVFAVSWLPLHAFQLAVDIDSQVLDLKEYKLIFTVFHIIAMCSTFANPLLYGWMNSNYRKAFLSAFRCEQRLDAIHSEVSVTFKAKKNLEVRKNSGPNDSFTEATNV

How the values were obtained:
Y1 receptors = Y1 receptors (Homo sapiens, UniProt P25929)
Y2 receptor = Y2 receptor (Homo sapiens, UniProt P49146)

binding to Y1 receptors (Y1 receptors): does not bind | agonist activity at the Y2 receptor (Y2 receptor): full agonist
Substance: NPY13-36: Neuropeptide Y fragment 13-36; full agonist at the Y2 receptor
